# From PubChem BioAssay AID624169 (The Scripps Research Institute Molecular Screening Center, 2012)
# Amino acid sequences for entries named in this document (tags omitted).
# UniProt P35363, whole entry: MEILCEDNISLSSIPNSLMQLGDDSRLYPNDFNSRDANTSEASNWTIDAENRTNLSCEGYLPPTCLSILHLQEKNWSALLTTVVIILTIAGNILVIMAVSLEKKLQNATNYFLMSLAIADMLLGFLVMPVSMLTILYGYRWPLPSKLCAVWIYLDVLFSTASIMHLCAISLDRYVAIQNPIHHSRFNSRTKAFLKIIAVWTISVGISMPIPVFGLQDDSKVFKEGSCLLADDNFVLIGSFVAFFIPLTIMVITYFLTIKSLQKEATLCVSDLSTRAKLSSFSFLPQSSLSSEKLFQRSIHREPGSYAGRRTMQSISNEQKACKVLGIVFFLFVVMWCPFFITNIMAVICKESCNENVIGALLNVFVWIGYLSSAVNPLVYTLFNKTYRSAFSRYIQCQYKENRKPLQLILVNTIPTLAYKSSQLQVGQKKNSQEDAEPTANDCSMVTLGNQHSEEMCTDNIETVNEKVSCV
# This is a selection; strong and weak results do not stand in their true shares. Some results for these compounds are left out of this collection, so the calls shown say nothing about other tests. Active and inactive are the calls of the source.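 How the source made its calls: active means activation above a run cutoff, the mean activation of all tested compounds plus 3 SD (cut at about 14% in these data); inactive means the rest.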
# Molecular target: 5-hydroxytryptamine receptor 2A (Mus musculus) (UniProt P35363)
# Assay: mouse Htr2a agonists via beta-arrestin recruitment, primary screen, cell-based, luminescence (AID 624169);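 further: 0% = plate median of compound wells and 100% = 30 µM serotonin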
# Settings: CHO-K1 mHTR2A beta-arrestin complementation, at 7.6 µM, hits give high values, percent of 30 µM serotonin response
row,SMILES,activation
1,Cc1ccccc1C(=O)NCC1(N2CCCCC2)CCCCC1,inactive: -0.46%
2,CN(C)C1CCCC1OC(=O)C(O)(c1ccccc1)c1ccccc1 (stereo unspecified),inactive: -3.32%
3,CN(C)c1ccc(C(=O)NCC2(N(C)C)CCCCC2)cc1,inactive: -4.82%
4,C=CCN1CCN(CCOC(=O)C(O)(c2ccccc2)c2ccccc2)CC1,inactive: -0.68%
5,O=C(NCC1(N2CCCCC2)CCCCC1)c1cc(F)c(F)cc1Cl,inactive: -0.53%
6,Cc1cc(C(=O)NCC2(N3CCCCC3)CCCCC2)ccc1[N+](=O)[O-],inactive: -10.9%
7,CCN1CCCC(OC(=O)C2(O)c3ccccc3C=Cc3ccccc32)C1 (stereo unspecified),inactive: -3.09%
8,O=C(NCC1(N2CCCCC2)CCCCC1)c1cccc(Br)c1,inactive: -7.82%
9,COc1ccc(C(=O)NCC2(N(C)C)CCCCC2)cc1,inactive: -0.97%
10,O=C(NCC1(N2CCCCC2)CCCCC1)c1cc([N+](=O)[O-])ccc1Cl,inactive: -3.16%
11,CN1[C@@H]2CC[C@H]1CC(OC(=O)C(O)(c1ccccc1)c1ccccc1)C2 (stereo partly specified),inactive: -8.31%
12,CC(C)N1C(=O)CC2(CCN(CCOC(=O)C(O)(c3ccccc3)c3ccccc3)CC2)C1=O,inactive: 2.77%
13,CCN(CC)CC(C)C(C)OC(=O)C(O)(c1ccccc1)c1ccccc1 (stereo unspecified),inactive: 2.64%
14,COc1cc(SC)ccc1C(=O)NCC1(N(C)C)CCCCC1,inactive: -11.5%
15,Cc1ccc(C(=O)NCC2(N3CCCCC3)CCCCC2)cc1,inactive: -4.34%
16,O=C(OC1CN2CCC1CC2)C(CO)(c1ccccc1)c1ccccc1 (stereo unspecified),inactive: -2.58%
17,COc1ccc(Br)c(C(=O)NCC2(N3CCCCC3)CCCCC2)c1,inactive: -2.18%
18,C=C(C)C#CC(O)(C(=O)OC1CCN(C)CC1)c1ccccc1 (stereo unspecified),inactive: 1.04%
19,CN(C)c1cccc(C(=O)NCC2(N(C)C)CCCCC2)c1,inactive: -6.05%
20,CC(C)Oc1ccc(C(=O)NCC2(N(C)C)CCCCC2)cc1,inactive: -7.59%
21,O=C(OCCN1CCCC1)C(O)(c1ccccc1)c1ccccc1,inactive: 0.41%
22,CN(C)C1(CNC(=O)c2ccc(Br)cc2)CCCCC1,inactive: -0.9%
23,COc1cc(C(=O)NCC2(N(C)C)CCCCC2)c([N+](=O)[O-])cc1OC,inactive: 0.23%
24,COc1cccc(C(=O)NCC2(N3CCCCC3)CCCCC2)c1,inactive: -2.58%
25,COc1ccc(Cl)cc1C(=O)NCC1(N(C)C)CCCCC1,inactive: -7.24%
26,O=C(NCC1(N2CCCCC2)CCCCC1)c1cccc(Cl)c1,inactive: -15.3%
